Test results from patent EP4834897A1, “COMPOUNDS WITH TWO AZAHETEROCYCLES SUBSTITUTED ISOINDOLINONE SKELETON AND USES THEREOF” (dated 2026).
pIC50: −log10 of the molar value.

By UniProt entry, the sequences of proteins in these tests, tags left out.
UniProt Q96SW2, whole entry: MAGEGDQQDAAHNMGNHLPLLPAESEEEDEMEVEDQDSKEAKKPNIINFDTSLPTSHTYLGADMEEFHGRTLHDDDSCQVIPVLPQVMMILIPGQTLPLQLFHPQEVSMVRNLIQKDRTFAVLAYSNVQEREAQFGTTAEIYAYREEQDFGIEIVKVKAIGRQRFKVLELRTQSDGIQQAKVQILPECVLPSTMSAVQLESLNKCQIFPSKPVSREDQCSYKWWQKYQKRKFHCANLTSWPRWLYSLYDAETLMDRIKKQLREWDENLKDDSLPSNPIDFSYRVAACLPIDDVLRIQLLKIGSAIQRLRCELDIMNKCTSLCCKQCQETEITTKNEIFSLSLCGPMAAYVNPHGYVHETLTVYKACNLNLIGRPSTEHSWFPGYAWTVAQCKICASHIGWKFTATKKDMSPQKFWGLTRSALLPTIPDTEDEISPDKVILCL
UniProt P48729, whole entry: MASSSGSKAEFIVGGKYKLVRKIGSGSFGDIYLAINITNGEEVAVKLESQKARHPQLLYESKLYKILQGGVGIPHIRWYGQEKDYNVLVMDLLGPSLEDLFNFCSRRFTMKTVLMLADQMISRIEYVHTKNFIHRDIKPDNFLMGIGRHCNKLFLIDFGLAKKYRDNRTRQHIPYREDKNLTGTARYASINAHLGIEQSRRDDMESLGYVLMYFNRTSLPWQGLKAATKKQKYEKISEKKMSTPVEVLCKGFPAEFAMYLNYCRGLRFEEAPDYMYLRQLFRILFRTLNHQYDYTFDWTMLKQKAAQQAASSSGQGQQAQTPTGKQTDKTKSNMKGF
UniProt P15170, whole entry: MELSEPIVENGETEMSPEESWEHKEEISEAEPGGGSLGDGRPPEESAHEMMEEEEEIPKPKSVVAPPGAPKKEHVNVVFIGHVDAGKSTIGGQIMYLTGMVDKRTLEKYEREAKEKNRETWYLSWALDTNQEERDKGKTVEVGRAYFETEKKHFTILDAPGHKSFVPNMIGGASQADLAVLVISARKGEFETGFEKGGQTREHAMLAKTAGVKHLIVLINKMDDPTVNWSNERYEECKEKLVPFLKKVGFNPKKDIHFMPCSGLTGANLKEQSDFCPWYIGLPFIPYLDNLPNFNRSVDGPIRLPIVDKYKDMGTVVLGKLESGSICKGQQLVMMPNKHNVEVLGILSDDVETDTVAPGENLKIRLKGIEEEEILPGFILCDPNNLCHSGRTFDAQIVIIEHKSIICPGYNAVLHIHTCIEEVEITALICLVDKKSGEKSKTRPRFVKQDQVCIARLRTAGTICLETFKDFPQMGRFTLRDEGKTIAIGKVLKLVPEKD
UniProt Q13422, whole entry: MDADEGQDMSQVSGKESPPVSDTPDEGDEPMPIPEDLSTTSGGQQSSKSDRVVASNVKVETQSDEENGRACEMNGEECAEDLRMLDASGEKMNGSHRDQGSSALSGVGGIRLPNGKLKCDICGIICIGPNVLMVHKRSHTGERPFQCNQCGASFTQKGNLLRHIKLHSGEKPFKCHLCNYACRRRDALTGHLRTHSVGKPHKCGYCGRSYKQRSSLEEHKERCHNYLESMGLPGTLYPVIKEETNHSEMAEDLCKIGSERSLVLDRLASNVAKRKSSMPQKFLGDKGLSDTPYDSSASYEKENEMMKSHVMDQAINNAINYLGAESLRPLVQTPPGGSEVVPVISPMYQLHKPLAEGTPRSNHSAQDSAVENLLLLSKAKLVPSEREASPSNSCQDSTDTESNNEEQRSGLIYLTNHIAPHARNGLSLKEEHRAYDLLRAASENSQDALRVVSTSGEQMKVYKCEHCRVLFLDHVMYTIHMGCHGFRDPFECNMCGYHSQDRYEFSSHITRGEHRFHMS
UniProt Q9UKS7, whole entry: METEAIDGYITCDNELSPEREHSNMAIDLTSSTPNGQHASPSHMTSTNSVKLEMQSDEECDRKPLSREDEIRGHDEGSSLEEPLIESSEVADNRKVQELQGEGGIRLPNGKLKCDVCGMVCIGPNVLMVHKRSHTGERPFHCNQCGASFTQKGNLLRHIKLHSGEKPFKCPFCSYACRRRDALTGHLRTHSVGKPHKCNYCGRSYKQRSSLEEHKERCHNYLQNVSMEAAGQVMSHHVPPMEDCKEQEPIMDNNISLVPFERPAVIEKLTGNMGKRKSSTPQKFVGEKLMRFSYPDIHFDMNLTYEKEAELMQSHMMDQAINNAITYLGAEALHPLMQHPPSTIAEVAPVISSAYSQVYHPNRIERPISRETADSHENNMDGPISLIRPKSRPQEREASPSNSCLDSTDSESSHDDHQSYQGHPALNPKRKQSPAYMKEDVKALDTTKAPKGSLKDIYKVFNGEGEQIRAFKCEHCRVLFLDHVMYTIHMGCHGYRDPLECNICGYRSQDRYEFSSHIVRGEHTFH
UniProt Q9UKT9, whole entry: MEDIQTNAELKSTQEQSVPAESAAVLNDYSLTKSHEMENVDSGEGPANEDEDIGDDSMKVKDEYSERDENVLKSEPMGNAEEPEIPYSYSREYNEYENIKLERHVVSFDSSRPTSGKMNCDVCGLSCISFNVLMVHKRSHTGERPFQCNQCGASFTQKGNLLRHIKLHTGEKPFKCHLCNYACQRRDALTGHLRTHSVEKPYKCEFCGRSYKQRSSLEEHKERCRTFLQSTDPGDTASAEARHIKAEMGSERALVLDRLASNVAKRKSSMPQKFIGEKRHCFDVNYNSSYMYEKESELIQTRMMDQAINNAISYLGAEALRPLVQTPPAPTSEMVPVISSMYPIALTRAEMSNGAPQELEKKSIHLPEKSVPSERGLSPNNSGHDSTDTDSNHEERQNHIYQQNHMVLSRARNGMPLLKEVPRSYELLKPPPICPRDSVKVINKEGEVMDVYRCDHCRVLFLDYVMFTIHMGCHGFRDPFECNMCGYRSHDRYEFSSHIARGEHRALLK
UniProt P30291, whole entry: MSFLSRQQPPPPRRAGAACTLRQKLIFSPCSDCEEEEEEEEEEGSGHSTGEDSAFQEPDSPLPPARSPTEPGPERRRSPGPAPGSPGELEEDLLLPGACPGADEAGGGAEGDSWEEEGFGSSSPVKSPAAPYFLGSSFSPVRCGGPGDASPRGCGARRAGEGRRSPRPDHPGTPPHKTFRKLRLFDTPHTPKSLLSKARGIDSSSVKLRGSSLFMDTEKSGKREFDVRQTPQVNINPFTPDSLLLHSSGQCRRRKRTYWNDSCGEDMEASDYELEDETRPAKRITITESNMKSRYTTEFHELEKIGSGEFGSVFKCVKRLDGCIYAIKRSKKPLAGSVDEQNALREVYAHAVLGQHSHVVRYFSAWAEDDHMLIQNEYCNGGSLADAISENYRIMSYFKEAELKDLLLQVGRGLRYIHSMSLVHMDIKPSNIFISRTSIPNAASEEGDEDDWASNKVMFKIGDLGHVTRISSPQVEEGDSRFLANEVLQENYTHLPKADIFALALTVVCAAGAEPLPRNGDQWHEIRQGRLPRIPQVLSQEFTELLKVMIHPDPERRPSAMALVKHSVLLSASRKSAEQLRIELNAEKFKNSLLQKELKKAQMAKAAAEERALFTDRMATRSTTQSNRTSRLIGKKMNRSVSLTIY
UniProt Q16531, whole entry partner: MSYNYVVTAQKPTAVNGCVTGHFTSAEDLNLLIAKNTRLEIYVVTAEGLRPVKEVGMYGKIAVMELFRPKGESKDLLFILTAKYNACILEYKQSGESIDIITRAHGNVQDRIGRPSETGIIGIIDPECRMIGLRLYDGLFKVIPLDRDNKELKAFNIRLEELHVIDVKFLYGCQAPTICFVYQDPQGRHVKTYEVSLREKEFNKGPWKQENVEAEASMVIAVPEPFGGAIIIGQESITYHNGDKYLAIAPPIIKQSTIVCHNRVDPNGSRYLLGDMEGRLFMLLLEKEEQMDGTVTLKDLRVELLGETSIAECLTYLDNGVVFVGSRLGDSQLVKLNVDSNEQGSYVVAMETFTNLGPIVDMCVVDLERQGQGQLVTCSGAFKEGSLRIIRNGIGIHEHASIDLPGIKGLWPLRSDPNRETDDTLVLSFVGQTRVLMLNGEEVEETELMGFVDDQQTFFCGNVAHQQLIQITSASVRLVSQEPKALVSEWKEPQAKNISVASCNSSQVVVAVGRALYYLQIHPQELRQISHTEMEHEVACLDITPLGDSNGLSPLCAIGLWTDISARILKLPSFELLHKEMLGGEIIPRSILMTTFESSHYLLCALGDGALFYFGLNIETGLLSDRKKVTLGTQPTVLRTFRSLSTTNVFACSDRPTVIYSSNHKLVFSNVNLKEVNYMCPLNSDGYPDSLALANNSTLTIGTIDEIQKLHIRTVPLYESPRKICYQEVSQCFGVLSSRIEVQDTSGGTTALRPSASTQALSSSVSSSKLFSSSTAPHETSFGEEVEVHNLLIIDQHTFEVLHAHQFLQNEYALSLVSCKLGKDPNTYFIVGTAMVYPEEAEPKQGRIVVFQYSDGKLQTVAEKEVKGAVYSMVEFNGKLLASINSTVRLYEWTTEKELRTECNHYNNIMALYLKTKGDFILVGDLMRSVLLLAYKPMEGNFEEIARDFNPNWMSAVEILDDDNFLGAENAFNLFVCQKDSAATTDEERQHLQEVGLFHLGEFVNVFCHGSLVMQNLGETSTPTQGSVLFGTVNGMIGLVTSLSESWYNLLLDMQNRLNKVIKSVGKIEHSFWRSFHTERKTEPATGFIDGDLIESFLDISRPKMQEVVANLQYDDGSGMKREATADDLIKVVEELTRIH

What was measured:
CRBN = CRBN (Homo sapiens, UniProt Q96SW2); assay: CRBN binding affinity by HTRF (CEREBLON BINDING kit); details: for Inhibition Rate at 0.5 µM (%) / Inhibition Rate at 2 µM (%): CRBN binding, HTRF; for Inhibition Rate at 0.5 µM (%): compound at 0.5 µM; for Inhibition Rate at 2 µM (%): compound at 2 µM; for pIC50: read-out: HTRF IC50, human Cereblon WT GST-tagged protein, 3 hours at room temperature
CK1α = CK1α (Homo sapiens, UniProt P48729+Q96SW2); assay: Western blot assay of substrate protein degradation in hPBMCs; details: 24 hours treatment, compounds at 50 nM and 500 nM (concentration behind the class not stated)
GSPT1 = GSPT1 (Homo sapiens, UniProt P15170+Q96SW2); assay: as above; details: 24 hours treatment, compounds at 50 nM and 500 nM (concentration behind the class not stated)
IKZF1 = IKZF1 (Homo sapiens, UniProt Q13422+Q96SW2); assay: as above; details: 24 hours treatment, compounds at 50 nM and 500 nM (concentration behind the class not stated)
IKZF2 = IKZF2 (Homo sapiens, UniProt Q96SW2+Q9UKS7); assay: as above; details: 24 hours treatment, compounds at 50 nM and 500 nM (concentration behind the class not stated)
IKZF3 = IKZF3 (Homo sapiens, UniProt Q96SW2+Q9UKT9); assay: as above; details: 24 hours treatment, compounds at 50 nM and 500 nM (concentration behind the class not stated)
WEE1 = WEE1 (Homo sapiens, UniProt P30291+Q96SW2); assay: as above; details: 24 hours treatment, compounds at 50 nM and 500 nM (concentration behind the class not stated)

SMILES	Inhibition Rate at 0.5 µM (%) (CRBN)	Inhibition Rate at 2 µM (%) (CRBN)	pIC50 (CRBN)	substrate protein remaining % (CK1a) (CK1α)	substrate protein remaining % (GSPT1) (GSPT1)	substrate protein remaining % (IKZF 1) (IKZF1)	substrate protein remaining % (IKZF2) (IKZF2)	substrate protein remaining % (IKZF3) (IKZF3)	substrate protein remaining % (WEE1) (WEE1)
O=C1CCC(N2Cc3ccc(CN4CCC(N5CCC(c6noc7cc(F)ccc67)CC5)C(F)(F)C4)cc3C2=O)C(=O)N1 (stereo not drawn)	a3 (30% < a3 ≤ 40%)	a5 (53% < a5 ≤ 60%)	–	B (80%< substrate protein remaining %≤ 100%)	A (0% ≤ substrate protein remaining % ≤ 80%)	B (80%< substrate protein remaining %≤ 100%)	B (80%< substrate protein remaining %≤ 100%)	B (80%< substrate protein remaining %≤ 100%)	B (80%< substrate protein remaining %≤ 100%)
O=C1CCC(N2Cc3c(ccc(CN4CCC(N5CCN(c6cccc(Cl)c6Cl)CC5)CC4)c3F)C2=O)C(=O)N1 (stereo not drawn)	–	–	6.00 to 6.30	B (80%< substrate protein remaining %≤ 100%)	B (80%< substrate protein remaining %≤ 100%)	A (0% ≤ substrate protein remaining % ≤ 80%)	B (80%< substrate protein remaining %≤ 100%)	A (0% ≤ substrate protein remaining % ≤ 80%)	A (0% ≤ substrate protein remaining % ≤ 80%)
O=C1CCC(N2Cc3cc(C(=O)N4CCC(N5CCN(c6cccc(Cl)c6Cl)CC5)CC4)c(F)cc3C2=O)C(=O)N1 (stereo not drawn)	a2 (20% < a2 ≤ 30%)	a5 (53% < a5 ≤ 60%)	–	B (80%< substrate protein remaining %≤ 100%)	A (0% ≤ substrate protein remaining % ≤ 80%)	B (80%< substrate protein remaining %≤ 100%)	B (80%< substrate protein remaining %≤ 100%)	B (80%< substrate protein remaining %≤ 100%)	B (80%< substrate protein remaining %≤ 100%)
CC1(C)CCC(C(=O)N2CCN(C3CCN(Cc4ccc5c(c4F)CN(C4CCC(=O)NC4=O)C5=O)CC3(F)F)CC2)=C(c2ccc(Cl)cc2)C1 (stereo not drawn)	–	–	6.00 to 6.30	B (80%< substrate protein remaining %≤ 100%)	A (0% ≤ substrate protein remaining % ≤ 80%)	A (0% ≤ substrate protein remaining % ≤ 80%)	A (0% ≤ substrate protein remaining % ≤ 80%)	A (0% ≤ substrate protein remaining % ≤ 80%)	B (80%< substrate protein remaining %≤ 100%)
O=C1CCC(N2Cc3ccc(CN4CCC(N5CC=C(c6cccc(Cl)c6Cl)CC5)C(F)(F)C4)cc3C2=S)C(=O)N1 (stereo not drawn)	a4 (40% < a4 ≤ 53%)	a7 (70% < a7 ≤80%)	–	B (80%< substrate protein remaining %≤ 100%)	A (0% ≤ substrate protein remaining % ≤ 80%)	B (80%< substrate protein remaining %≤ 100%)	A (0% ≤ substrate protein remaining % ≤ 80%)	B (80%< substrate protein remaining %≤ 100%)	B (80%< substrate protein remaining %≤ 100%)
O=C1CCC(N2Cc3cc(CN4CCC(N5CCN(c6noc7cc(F)ccc67)CC5)CC4)c(F)cc3C2=O)C(=O)N1 (stereo not drawn)	a4 (40% < a4 ≤ 53%)	a6 (60% < a6 ≤ 70%)	–	B (80%< substrate protein remaining %≤ 100%)	B (80%< substrate protein remaining %≤ 100%)	B (80%< substrate protein remaining %≤ 100%)	B (80%< substrate protein remaining %≤ 100%)	B (80%< substrate protein remaining %≤ 100%)	A (0% ≤ substrate protein remaining % ≤ 80%)

More lines, main results first:

Inhibition Rate at 0.5 µM (%) (CRBN)	Inhibition Rate at 2 µM (%) (CRBN)	pIC50 (CRBN)	SMILES	substrate protein remaining % (CK1a) (CK1α)	substrate protein remaining % (GSPT1) (GSPT1)	substrate protein remaining % (IKZF 1) (IKZF1)	substrate protein remaining % (IKZF2) (IKZF2)	substrate protein remaining % (IKZF3) (IKZF3)	substrate protein remaining % (WEE1) (WEE1)
a5 (53% < a5 ≤ 60%)	a8 (80% < a8 ≤100%)	–	O=C1CCC(N2Cc3cc(CCN4CCC(N5CCN(c6noc7cc(F)ccc67)CC5)C(F)(F)C4)ccc3C2=O)C(=O)N1 (stereo not drawn)	A (0% ≤ substrate protein remaining % ≤ 80%)	A (0% ≤ substrate protein remaining % ≤ 80%)	B (80%< substrate protein remaining %≤ 100%)	B (80%< substrate protein remaining %≤ 100%)	A (0% ≤ substrate protein remaining % ≤ 80%)	B (80%< substrate protein remaining %≤ 100%)
a2 (20% < a2 ≤ 30%)	a6 (60% < a6 ≤ 70%)	–	O=C1CCC(N2Cc3ccc(C(=O)N4CCC(N5CCN(C(c6ccccc6)c6ccccc6)CC5)C(F)(F)C4)cc3C2=O)C(=O)N1 (stereo not drawn)	A (0% ≤ substrate protein remaining % ≤ 80%)	A (0% ≤ substrate protein remaining % ≤ 80%)	A (0% ≤ substrate protein remaining % ≤ 80%)	B (80%< substrate protein remaining %≤ 100%)	A (0% ≤ substrate protein remaining % ≤ 80%)	A (0% ≤ substrate protein remaining % ≤ 80%)
a4 (40% < a4 ≤ 53%)	a6 (60% < a6 ≤ 70%)	–	O=C1CCC(N2Cc3cc(C(=O)N4CCC(N5CCN(C(c6ccccc6)c6ccccn6)CC5)C(F)(F)C4)ccc3C2=O)C(=O)N1 (stereo not drawn)	B (80%< substrate protein remaining %≤ 100%)	A (0% ≤ substrate protein remaining % ≤ 80%)	B (80%< substrate protein remaining %≤ 100%)	A (0% ≤ substrate protein remaining % ≤ 80%)	A (0% ≤ substrate protein remaining % ≤ 80%)	B (80%< substrate protein remaining %≤ 100%)
a2 (20% < a2 ≤ 30%)	a5 (53% < a5 ≤ 60%)	–	CC1(C)CCC(CN2CCN(C3CCN(C(=O)c4cccc5c4C(=O)N(C4CCC(=O)NC4=O)C5=O)CC3(F)F)CC2)=C(c2ccc(Cl)cc2)C1 (stereo not drawn)	B (80%< substrate protein remaining %≤ 100%)	B (80%< substrate protein remaining %≤ 100%)	B (80%< substrate protein remaining %≤ 100%)	B (80%< substrate protein remaining %≤ 100%)	A (0% ≤ substrate protein remaining % ≤ 80%)	B (80%< substrate protein remaining %≤ 100%)
a3 (30% < a3 ≤ 40%)	a7 (70% < a7 ≤80%)	–	O=C1CCC(N2Cc3cc(C(=O)N4CCC(N5CCN(C(c6ccccc6)c6ccccc6)CC5)C(F)(F)C4)cc(F)c3C2=O)C(=O)N1 (stereo not drawn)	B (80%< substrate protein remaining %≤ 100%)	A (0% ≤ substrate protein remaining % ≤ 80%)	A (0% ≤ substrate protein remaining % ≤ 80%)	B (80%< substrate protein remaining %≤ 100%)	B (80%< substrate protein remaining %≤ 100%)	A (0% ≤ substrate protein remaining % ≤ 80%)
a7 (70% < a7 ≤80%)	a8 (80% < a8 ≤100%)	–	CC1(C)CCC(C(=O)N2CCN(C3CCN(C(=O)c4cccc5c4CN(C4CCC(=O)NC4=O)C5=O)CC3(F)F)CC2)=C(c2ccc(Cl)cc2)C1 (stereo not drawn)	B (80%< substrate protein remaining %≤ 100%)	A (0% ≤ substrate protein remaining % ≤ 80%)	B (80%< substrate protein remaining %≤ 100%)	B (80%< substrate protein remaining %≤ 100%)	B (80%< substrate protein remaining %≤ 100%)	B (80%< substrate protein remaining %≤ 100%)
a1 (10% < a1 ≤ 20%)	a6 (60% < a6 ≤ 70%)	–	CC1(C)CCC(CN2CCN(C3CCN(C(=O)c4ccc5c(c4)CN(C4CCC(=O)NC4=O)C5=O)CC3(F)F)CC2)=C(c2ccc(Cl)cc2)C1 (stereo not drawn)	B (80%< substrate protein remaining %≤ 100%)	A (0% ≤ substrate protein remaining % ≤ 80%)	B (80%< substrate protein remaining %≤ 100%)	B (80%< substrate protein remaining %≤ 100%)	B (80%< substrate protein remaining %≤ 100%)	B (80%< substrate protein remaining %≤ 100%)
